Measurements from US20240000754A1, “METHODS OF TREATMENT OF LIVER FAILURE” (GENFIT, priority 2020, published 2024).

Tested on: hepatic transcriptome of mice
Test: Hepatic transcriptomic analysis (RNA-seq) in CDAA/c diet-fed mice treated with NTZ
Format: in vivo
Conditions: NTZ + CDAA/c versus CDAA/c; liver mRNA; NTZ 100 mg/kg/day in diet, 12 weeks
Description: Liver injury was induced in 5-6 week-old male C57Bl/6 mice (Janvier Labs, France) by feeding them a cholesterol (1%) supplemented choline-deficient L-amino acid-defined diet (CDAA/c) (Ssniff, Germany) for 12 weeks (n=12). Some animals received from day 1 and throughout the study CDAA/c diet supplemented with NTZ (Interchim, France) (100 mg/kg/day) (n=8). Mice receiving choline supplemented L-amino acid-defined (CSAA) diet served as additional controls (n=6).
Total RNA was isolated from mice livers using Nucleospin® 96 RNA kit (ref 740709.4, Macherey Nagel, France) (n=5). Upon measurement of RNA samples concentration by Multiskan™ GO spectrophotometer (Thermo Scientific, France), the quality was assessed using 2100 Bioanalyser from Agilent (USA). Libraries were prepared using the Illumina TruSeq stranded mRNA LT kit (Ref RS-122-2101, Illumina, USA) and mRNA were sequenced using a NextSeq 500 device (paired-end sequence, 2×75 bp), with a High Output flow cell (ref FC-404-2002—NextSeq® 500/550 High Output Kit v2 (150 cycles), Illumina, USA).
Reads were cleaned using Trimmomatic v.0.36 with the following parameters: SLIDINGWINDOW: 5:20 LEADING: 30 TRAILING: 30 MINLEN: 60 (Bolger et al., Bioinformatics, 2014). Then reads were aligned on the genome reference (Mus musculus GRCm38.90—GenBank assembly accession GCA_000001635.2) with rnacocktail using hisat2 v.2.1.0 as aligner with default parameters (Sahraeian et al. Nature communications 2017).
A count table was produced using featureCounts v1.5.3 with default parameters (Liao Y et al. Bioinformatics 2014).
To identify differentially expressed genes (DE genes), we used R (version 3.4.3) and the DESEq2 library (v. 1.18.1). Gene annotations were retrieved using the AnnotationDbi library (v. 1.40.0). Briefly, the count matrix produced by FeatureCounts was analyzed by the DESeqDataSetFromMatrix( ) function followed by the DEseq( ) function from the DESeq2 library. For each condition (ie comparison NTZ+CDAA/c vs CDAA/c), the fold change and the p-value were retrieved using the results( ) function from DESeq2.

## CC(=O)Oc1ccccc1C(=O)Nc1ncc([N+](=O)[O-])s1 [NTZ, nitazoxanide]
  Fold change (log2) Abat: 0.792 log2
  Fold change (log2) Abcc4: 1.354 log2
  Fold change (log2) Arhgef26: 1.108 log2
  Fold change (log2) Ctsk: −0.930 log2
  Fold change (log2) Glul: 0.672 log2
  Fold change (log2) Gsta2: 1.652 log2
  Fold change (log2) Ldhd: 0.659 log2
  Fold change (log2) Prodh: 0.756 log2
  Fold change (log2) Slc1a2: 0.820 log2
  Fold change (log2) Sugct: 0.664 log2
